Experimental data published in US7892350B2, “Sacrificial agents for fly ash concrete” (Boral Material Technologies Inc., priority 2003, dated 2011).

Experiment: Second sacrificial agent testing protocol: paste air measurements with DDBS (0.0125 wt %) and rating; on SA Rating (0-4): key: 0: Fail; 1: Poor; 2: Good; 3: Preferred; 4: Most preferred

## OCCN(CCO)CCO
B1 FA/cement paste, 0.0125 wt % DDBS, 0.05 wt % SA
  B1 + 0.0125% DDBS + 0.05% SA (air entrainment): 2.5
B1 FA/cement paste, 0.0125 wt % DDBS, 0.10 wt % SA
  B1 + 0.0125% DDBS + 0.1% SA (air entrainment): 3.1
Portland cement paste (PCA), 0.1 wt % SA, no DDBS
  PCA + 0.1% SA (level of air entrainment by the candidate sacrificial agent): 0.6
Sacrificial agent overall rating index
  SA Rating (0-4): 0
